For 1 molecule, IC50 results are on record in patent publication US6498252B1, “Pyrimidine-2,4,6-trione derivatives, processes for their production and pharmaceutical agents containing these compounds” (priority 1999, dated 2002).

Amino acid sequences for entries named in this document (tags omitted). Residues count along the entry.
UniProt P22894, 100-262 limits assumed: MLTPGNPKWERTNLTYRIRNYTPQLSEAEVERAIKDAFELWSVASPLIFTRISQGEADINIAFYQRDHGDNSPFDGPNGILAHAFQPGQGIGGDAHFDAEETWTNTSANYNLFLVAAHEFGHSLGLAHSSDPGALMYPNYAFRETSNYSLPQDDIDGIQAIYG

The test concerns the target MMP-8, catalytic domain (Homo sapiens, UniProt P22894). The test can be described thus: Inhibition of MMP-8 (HNC) catalytic domain, fluorogenic substrate cleavage. In kind it is biochemical. Particulars: read-out: IC50 Values of MMP-Inhibitor (vs. MMP-8, catalytic domain); catalytic domain of human neutrophil collagenase (MMP-8); substrate DNP-Pro-Leu-Gly-Leu-Trp-Ala-D-Arg-NH2; 25° C. The method, then: In order to determine the inhibition of MMPs, for example HNC (MMP-8), the catalytic domain (isolation and purification see for example Schnierer, S., Kleine, T., Gote, T., Hillemann, A., Knäuper, V., Tschesche, H.,Biochem. Biophys. Res. Commun. (1993) 191, 319-326) were incubated with inhibitors having various concentrations. Subsequently, the initial reaction rate in the conversion of a standard substrate was measured in a manner analogous to Grams F. et al., FEBS 335 (1993) 76-80).
The results awee evaluated by plotting the reciprocal reaction rate against the concentration of the inhibitor. […]
The synthetic collagenase substrate was a heptapeptide which is coupled, at the C terminus, with DNP (dinitrophenol). Said DNP residue quenched by steric hindrance the fluorescence of the adjacent tryptophane of the heptapeptide. After cleavage of a tripeptide which includes the DNP group, the tryptophane fluorescence increased. The proteolytic cleavage of the substrate therefore was measured by the fluorescence value.
The assay was performed at 25° C. in a freshly prepared 50 mM Tris buffer (pH 8.0) treated with dithiozone to remove traces of heavy metals. […] Enzyme concentrations were determined by uv measurements (ε280=2.8 10^4 M^−1 cm^−1, ε288: 2.2 10^4 M^−. cm^−1) and the stock solutions were stored in the cold. […]

By IC50 is commonly meant the concentration that gives 50% inhibition. As to `CCCCCCCCC1(N2CCN(c3ccc([N+](=O)[O-])cc3)CC2)C(=O)NC(=O)NC1=O`, the IC50 was determined as 60 nM.
